Values of other authors, collected in PubChem BioAssay AID977611 (Shanghai Institute of Organic Chemistry, 2012).

Experiments:
Assay in all cases: PubChem AID 977611
[1] = biological target: Protease(Q7K/L10I/G48V/I54V/V64I/V82A); settings: PDB protein-ligand complexes, literature Kd, protein: Protease(Q7K/L10I/G48V/I54V/V64I/V82A)
[2] = biological target: Protease(Q7K,V64I mutation); settings: PDB protein-ligand complexes, literature Kd, protein: Protease(Q7K,V64I mutation)
Protease(Q7K/V82T/I84V) = settings: PDB protein-ligand complexes, literature Kd; protein: Protease(Q7K/V82T/I84V); PDB entry 3EL9
[3] = biological target: Protease(Q7K/K41R/V64I/V82T/I84V); settings: PDB protein-ligand complexes, literature Kd; protein: Protease(Q7K/K41R/V64I/V82T/I84V); PDB entry 3EL5
[4] = biological target: Protease(Q7K, V64I mutation); settings: PDB protein-ligand complexes, literature Kd; protein: Protease(Q7K, V64I mutation); PDB entry 3EKX
[5] = biological target: Protease(Q7K/V64I/V82T/I84V); settings: PDB protein-ligand complexes, literature Kd; protein: Protease(Q7K/V64I/V82T/I84V); PDB entry 3EL4
Protease(Q7K mutation) = settings: PDB protein-ligand complexes, literature Kd; protein: Protease(Q7K mutation); PDB entry 3EL1
[6] = biological target: Protease(L10I/G48V/I54V/V64I/V82A); settings: PDB protein-ligand complexes, literature Kd; protein: Protease(L10I/G48V/I54V/V64I/V82A); PDB entry 3EKP

COC(=O)N[C@H](C(=O)N[C@@H](Cc1ccccc1)[C@@H](O)CN(Cc1ccc(-c2ccccn2)cc1)NC(=O)[C@@H](NC(=O)OC)C(C)(C)C)C(C)(C)C
Kd ([1]; PDB entry 3EKW): 10.9 nM | Kd ([2]; PDB entry 3EKY): 0.23 nM | Kd (Protease(Q7K/V82T/I84V)): 4 nM

Cc1c(O)cccc1C(=O)N[C@@H](CSc1ccccc1)[C@H](O)CN1C[C@H]2CCCC[C@H]2C[C@H]1C(=O)NC(C)(C)C
Kd [3]: 18.9 nM

CC1C(=O)C=CC=C1C(=O)N[C@@H](CSc1ccccc1)[C@H](O)CN1C[C@H]2CCCC[C@H]2C[C@H]1C(=O)NC(C)(C)C (stereo partly specified)
Kd ([1]; PDB entry 3EL0): 34.1 nM | Kd [4]: 0.39 nM

CC(C)(C)NC(=O)[C@@H]1C[C@@H]2CCCC[C@@H]2CN1C[C@@H](O)[C@H](Cc1ccccc1)NC(=O)[C@H](CC(N)=O)NC(=O)c1ccc2ccccc2n1
Kd ([1]; PDB entry 3EKQ): 176 nM | Kd [5]: 67.4 nM

COC(=O)NC(C(=O)N[C@@H](Cc1ccccc1)[C@@H](O)CN(Cc1ccc(-c2ccccn2)cc1)NC(=O)[C@@H](NC(=O)OC)C(C)(C)C)C(C)(C)C (stereo partly specified)
Kd (Protease(Q7K mutation)): 0.23 nM

CC(C)CN(C[C@@H](O)[C@H](Cc1ccccc1)NC(=O)O[C@H]1CCOC1)S(=O)(=O)c1ccc(N)cc1
Kd [6]: 1.3 nM | Kd ([2]; PDB entry 3EKV): 0.39 nM
